This note sets out measurements from ChEMBL document CHEMBL3822434 (Bioorg Med Chem, 2016).

What is called IC50 is the concentration that inhibits the measured activity by half.

In this assay the target is T1, Mitogen-activated protein kinase kinase kinase 7 (Homo sapiens, UniProt O43318).
T1 sequence (O43318 whole entry): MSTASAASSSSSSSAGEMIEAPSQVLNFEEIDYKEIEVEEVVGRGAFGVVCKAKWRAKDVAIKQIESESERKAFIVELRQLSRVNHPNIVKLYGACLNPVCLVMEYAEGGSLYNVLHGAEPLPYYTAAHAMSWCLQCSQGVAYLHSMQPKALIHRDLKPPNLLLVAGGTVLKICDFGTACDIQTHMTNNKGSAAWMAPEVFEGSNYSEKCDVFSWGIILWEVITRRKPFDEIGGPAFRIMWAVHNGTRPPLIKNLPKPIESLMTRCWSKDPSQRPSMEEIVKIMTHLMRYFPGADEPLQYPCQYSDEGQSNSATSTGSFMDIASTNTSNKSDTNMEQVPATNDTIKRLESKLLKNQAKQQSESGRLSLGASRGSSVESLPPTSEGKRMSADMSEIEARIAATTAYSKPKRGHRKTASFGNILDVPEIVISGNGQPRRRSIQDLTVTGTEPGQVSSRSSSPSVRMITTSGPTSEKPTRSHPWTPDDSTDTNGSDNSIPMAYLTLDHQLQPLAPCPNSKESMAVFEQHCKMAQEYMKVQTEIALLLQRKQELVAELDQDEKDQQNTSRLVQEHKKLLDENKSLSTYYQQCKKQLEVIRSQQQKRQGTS
Nature of the assay: Inhibition of full length TAK1 (unknown origin) fused with TAB1 using biotin-MKK6 as substrate by AlphaScreen assay.

In the case of `COc1cc(O)c2c(c1)/C=C/C[C@H](O)[C@H](O)C(=O)/C=C\C[C@H](C)OC2=O`, half-maximal inhibition (IC50) was put at 9 nM.
